## AlphaSeq binding of Ab-14 light chain variants to a spike HR2 peptide

The measurements come from Li et al. 2023 (doi:10.1038/s41467-023-39022-2) through the FLAb antibody collection.

Target: peptide PDVDLGDISGINAS, taken from heptad repeat 2 (HR2) of SARS-CoV-2 spike.

Each scFv is VH, a (GGGGS)3 linker, VL, as in the parent Ab-14, and differs from it in the CDRs of the light chain only.
VH: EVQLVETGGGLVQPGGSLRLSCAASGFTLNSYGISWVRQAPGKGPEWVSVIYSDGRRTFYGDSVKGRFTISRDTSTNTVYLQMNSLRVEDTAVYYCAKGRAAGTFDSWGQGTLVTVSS
VL: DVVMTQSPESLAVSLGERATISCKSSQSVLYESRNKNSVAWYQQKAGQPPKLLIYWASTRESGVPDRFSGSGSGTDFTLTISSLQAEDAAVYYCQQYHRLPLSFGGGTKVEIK

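Designed CDR sequences, proposed from the first random library and measured here. Several design methods are mixed in this list. In AlphaSeq, yeast of one mating type display the scFv and yeast of the other type display the target. Binding brings cells together so that they mate, and sequencing counts the barcode pairs among the diploids. Each replicate has its own calibration line, from reference interactions of the BCL2 family. There are six technical replicates.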

Each variant is given by its three light chain CDRs, as the data file delimits them; those of the parent are KSSQSVLYESRNKNSVA, WASTRES, QQYHRLPLS. Variants here have more than six changes. Affinities are written as log10 Kd with Kd in nM; a lower number is a better binder. The mean shown is taken over the replicates in which the pair was detected. "ND" means that the variant was in the library but no mating with the target was seen in that replicate; the authors take this as a sign of poor binding, and no number exists. The authors' rule: three or more of the six replicates give a measured affinity, fewer mean a poor binder. Of ten entries with the parent sequence, four were seen in most replicates (averages 0.34 to 2.37), three in one and three in none, so single entries are noisy. Background: pairings of all light chain designs with three empty control strains gave a value in 4% of cases (median 2.64, 5th percentile 1.59). Values in that range, when seen in few replicates, are hard to tell from nonspecific mating. The range of this assay differs from that of the first round, and the authors advise against merging the two.

| CDR-L1 | CDR-L2 | CDR-L3 | log10 Kd (nM) by replicate | mean log10 Kd (nM) |
|---|---|---|---|---|
| SLQTKYSIAQDRWSNVA | HADQREA | QQYFRLPIV | 1.60 / 0.90 / 0.68 / 0.73 / 0.86 / 1.34 | 1.02 |
| KLSMETYGLTGHASSIA | HQEIRWA | QQYHKLPLI | 0.90 / 0.49 / 0.65 / 0.37 / 0.97 / 1.43 | 0.80 |
| KLSQSVDYEDRNCNAVA | AASQREE | QQYHRLPLS | 0.43 / 0.18 / 0.36 / 0.09 / 0.34 / 0.39 | 0.30 |
| KISQMSTIESIMHNSVA | QTSTREN | QQYDRLPLS | -0.01 / 0.09 / -0.19 / -0.21 / -0.11 / 0.14 | -0.05 |
| HIDTEWNHGANRDNNIA | EAQTVAA | QDYFRLPII | ND / 2.25 / 1.95 / ND / 1.59 / ND | 1.93 |
| KISQLVNFMGKNKNSVA | QMSTRES | QQYDRLPLS | 0.79 / 0.31 / 0.55 / 0.25 / 0.60 / 0.63 | 0.52 |
| NLNTYYYTGTSNWDNIA | HGSMVEA | QQYFRLPIQ | 0.47 / 0.75 / 0.46 / 0.32 / 0.78 / 0.64 | 0.57 |
| KVSMSVQYEARNINSVA | EASTRED | QQYHRLPLS | 0.14 / 0.03 / 0.04 / -0.10 / 0.06 / 0.26 | 0.07 |
| KLEWSQLYESRNCNSVA | NASTRES | QQYWRLPLS | 0.59 / 0.55 / 0.66 / 0.56 / 0.77 / 0.78 | 0.65 |
| KISKPWELGHPSTNAVA | NADIANA | QQYSRLPLS | -0.37 / -0.26 / -0.29 / -0.61 / -0.46 / -0.14 | -0.35 |
| KLSQSVGYESRMVNNVA | AASTRED | QQYHRLPLS | -0.23 / 0.00 / -0.48 / -0.22 / -0.69 / 0.12 | -0.25 |
| HITYGMYVSGRHTSNIA | QAETRAK | QQYDRLPLI | 0.99 / 1.10 / 1.14 / 0.60 / 0.95 / 1.46 | 1.04 |
| SLRHMILDWDNKMQNIA | DVHMREQ | QQYFRLPIV | 1.24 / 0.62 / 0.92 / 0.80 / 1.40 / 1.85 | 1.14 |
| KIAQSYLYEDRNKWSVA | NASTRLS | QQYHRLPLS | 0.23 / 0.11 / 0.10 / -0.14 / -0.01 / 0.09 | 0.06 |
| HITMGMYVAGRHHSSIA | QAETRAK | QQYDRLPLI | 2.16 / 1.97 / ND / ND / 2.44 / ND | 2.19 |
| HISQMWMLESRNLNNVA | EESTRED | QSYFRLPLS | 0.98 / -0.10 / 0.02 / -0.18 / 0.52 / 0.32 | 0.26 |
| HLGQEGYNQTYAMKSVA | DQNTALE | QHYSRLPLT | 0.53 / 1.33 / 1.06 / 1.32 / 0.46 / 0.77 | 0.91 |
| KLTDYMQGSNAMDNSIA | QTNIYHE | QQYGRLPLV | 1.08 / 1.73 / 1.29 / 1.38 / 1.49 / 1.54 | 1.42 |
| KLSMSYRYESQEKNSIA | EMNTREE | QSYHRLPLS | 1.76 / 1.18 / 1.27 / 1.13 / 1.19 / 1.07 | 1.27 |
| KLSQADWYESRNKWSVA | NASLREQ | QQYHRLPLS | 0.86 / 1.22 / 0.84 / 1.22 / 0.85 / 0.86 | 0.98 |
| KLSMETATLTGQMDSIA | HVEIRWA | QQYHKLPLI | ND / ND / ND / ND / ND / ND | ND |
| TISGMTSLFSQSINNVA | EVSTREP | QQYDRLPLV | 0.46 / 1.05 / 0.15 / 0.64 / 0.84 / 1.01 | 0.69 |
| MISQLINMGSFAINSVA | QASLRCN | QQYDRLPLM | -0.07 / 0.58 / 0.11 / -0.18 / -0.26 / -0.12 | 0.01 |
| TLVDNIQGGMWAKKNVA | DESTRVN | QQYYMLPLS | 0.67 / 0.46 / 0.49 / 0.07 / 0.38 / 0.73 | 0.47 |
| KLTSTMRFEQKKKNNIA | EVSMRTK | QQYNRLPLA | 1.09 / 1.12 / 1.11 / 1.87 / 2.06 / 1.09 | 1.39 |
| MISQLMNLGQFAINSVA | QATIRNH | QQYDRLPLA | ND / ND / ND / ND / ND / 1.85 | 1.85 |
| KVAERYEMGENFQSSIA | SGAHKVH | QQYHRLPLG | ND / 1.59 / ND / 1.57 / 2.67 / 2.80 | 2.16 |
| KFSQSQPYESRMSNSVA | NASLRMS | QQYHRLPLS | 0.37 / 0.08 / 0.15 / -0.03 / 0.03 / 0.32 | 0.16 |
| TLVGNIQGGGWMIKSIA | DNVQRAN | QQYYRLPLS | 1.57 / 1.37 / ND / 1.73 / 4.18 / 1.59 | 2.09 |
| MMSSLMGYESRHINNVA | QTSTRES | QQYDRLPLM | 0.61 / 0.57 / 0.50 / 0.96 / 0.49 / 0.99 | 0.69 |
| MISEVMNTLTRHGNNVA | DLSERED | QQYFRLPLS | ND / ND / ND / ND / ND / ND | ND |
| ILYDSVGTLSRDKNSVA | DNSTRES | QQYDRLPLS | 2.98 / 1.90 / 1.92 / 2.62 / 2.95 / 2.36 | 2.46 |
| MVYQAVMMGTSTRNSIA | NAEMRPD | QQYHRLPLE | 1.73 / 1.03 / 1.31 / 1.02 / 1.69 / 1.36 | 1.36 |
| QLLTGVTENAKNGKAIA | NHEEKAQ | QQYFRLPFS | 0.10 / 0.05 / 0.14 / -0.18 / 0.04 / 0.24 | 0.06 |
| HMSMLTLMGQRHRNSVA | QMTTREN | QQYDRLPLA | 1.75 / 1.99 / 3.09 / ND / 1.52 / 2.51 | 2.17 |
| KLTHLSFVHDRQKASVA | DLERKAE | QQYNRLPLT | ND / ND / ND / ND / ND / 0.73 | 0.73 |
| KLVQMTGIESHAKNSLA | DANRREE | QQYHRLPLS | 0.15 / -0.24 / -0.11 / -0.33 / -0.18 / 0.06 | -0.11 |
| KVQQSVPYEDRNKNSVA | EASTRCS | QDYHRLPLS | 0.39 / 0.48 / 0.15 / 0.06 / 0.16 / 0.44 | 0.28 |
| TISQMSTMFSQSINNVA | EVSTREQ | QQYDRLPLV | 2.42 / 0.79 / 1.84 / 1.12 / 1.04 / 1.03 | 1.37 |
| KLGMYVWLESRNKNSVA | QASTREW | QQYHRLPLS | ND / 1.16 / 2.15 / 3.22 / 1.52 / 1.71 | 1.95 |
| KLTSITGTEKVRGQNVA | EMETREN | QQYNRLPLS | 0.35 / 0.24 / -0.07 / -0.14 / -0.13 / 0.20 | 0.08 |
| TLGQSSLMESRNKNNVA | QMSTREK | QQYDRLPLS | 0.20 / 0.35 / 0.10 / -0.02 / 0.13 / 0.10 | 0.14 |
| NLGGEDAQDTRGMAAVA | DVSEVGE | QHYSRLPLS | ND / ND / 1.27 / 2.48 / 1.27 / 2.01 | 1.75 |
| KLWMSVLGESRNSNAVA | SASTREL | QQYHRLPLS | 0.97 / 1.31 / 1.34 / 1.41 / 0.95 / 1.19 | 1.19 |
| ILSQMLWTAGNKHNSVA | QANYRES | QQYHRLPLS | ND / ND / ND / ND / 1.69 / ND | 1.69 |
| NMHNMCYQYENYGNSIA | HANLREN | QQYSRLPFT | 0.21 / 0.08 / 0.37 / 0.16 / -0.01 / 0.33 | 0.19 |
| MLSDLNKMGVRNTQSVA | DNSTRGA | QQYDRLPLS | 1.71 / 1.74 / 2.91 / 2.77 / 1.41 / 2.08 | 2.10 |
| TISMSMNWLTRNKNSIA | EESTRQD | QQYDRLPLS | 1.52 / 1.67 / 1.80 / 1.92 / 1.62 / 2.35 | 1.81 |

Repeated from above, the 5 best binders with a signal in all replicates:

CDR-L1,CDR-L2,CDR-L3,log10 Kd (nM) by replicate,mean log10 Kd (nM)
KISKPWELGHPSTNAVA,NADIANA,QQYSRLPLS,-0.37 / -0.26 / -0.29 / -0.61 / -0.46 / -0.14,-0.35
KLSQSVGYESRMVNNVA,AASTRED,QQYHRLPLS,-0.23 / 0.00 / -0.48 / -0.22 / -0.69 / 0.12,-0.25
KLVQMTGIESHAKNSLA,DANRREE,QQYHRLPLS,0.15 / -0.24 / -0.11 / -0.33 / -0.18 / 0.06,-0.11
KISQMSTIESIMHNSVA,QTSTREN,QQYDRLPLS,-0.01 / 0.09 / -0.19 / -0.21 / -0.11 / 0.14,-0.05
MISQLINMGSFAINSVA,QASLRCN,QQYDRLPLM,-0.07 / 0.58 / 0.11 / -0.18 / -0.26 / -0.12,0.01